Results published in PubChem BioAssay AID624204 (Sanford-Burnham Center for Chemical Genomics, 2012).
Only a part is listed here, and it is no random draw. The source made the active and inactive calls.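 Rule for the calls: active = inhibition at least 30% at 10 µM, raw YFP signal under a set limit, fluorescence ratio 0.5 to 1.5; inactive = the rest.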

Sequences of proteins named here, by UniProt entry; tags and fusion partners are left off. A change or cut given only in a name is not applied to a line headed by its entry.
UniProt Q9P0U3: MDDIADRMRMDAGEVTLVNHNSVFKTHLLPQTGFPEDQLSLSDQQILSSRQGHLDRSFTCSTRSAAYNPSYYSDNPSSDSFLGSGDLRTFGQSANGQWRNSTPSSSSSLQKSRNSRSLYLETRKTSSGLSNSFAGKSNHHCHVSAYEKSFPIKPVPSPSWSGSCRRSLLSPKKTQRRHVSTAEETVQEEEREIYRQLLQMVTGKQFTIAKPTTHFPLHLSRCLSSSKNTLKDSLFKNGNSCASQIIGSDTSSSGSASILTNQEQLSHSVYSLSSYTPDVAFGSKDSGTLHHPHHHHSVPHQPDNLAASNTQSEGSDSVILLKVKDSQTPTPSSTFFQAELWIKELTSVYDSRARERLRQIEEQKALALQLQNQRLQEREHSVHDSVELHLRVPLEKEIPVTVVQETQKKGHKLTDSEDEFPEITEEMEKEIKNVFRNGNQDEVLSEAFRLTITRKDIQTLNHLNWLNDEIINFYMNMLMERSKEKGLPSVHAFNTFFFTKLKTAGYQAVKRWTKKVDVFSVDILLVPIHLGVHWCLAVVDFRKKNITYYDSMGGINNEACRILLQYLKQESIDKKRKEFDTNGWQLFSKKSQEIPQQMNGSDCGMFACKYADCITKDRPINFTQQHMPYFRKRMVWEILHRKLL

What follows are molecules tested against Sentrin-specific protease 1 (Homo sapiens) (UniProt Q9P0U3) (assay: human SENP1 catalytic domain inhibitors, primary screen, biochemical, FRET, uHTS (AID 624204;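 note: 0% = enzyme with DMSO and 100% = no enzyme wells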)). Conditions: recombinant SENP1 catalytic domain, CyPet-SUMO1-YPet FRET cleavage; at 10 µM; stronger effect = higher value.
Outline: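 material = recombinant human SENP1 catalytic domain, His6-tagged | quantity = 20 pM enzyme | reagent = 25 nM SUMO1 FRET substrate | compound dosing = 10 µM single point, 0.5% DMSO | timing = 50 min enzyme reaction, room temperature, light-protected | detection = FRET, CFP and YFP emission | control set = no-enzyme low, enzyme-DMSO high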
In the case of `O=[As](O)(c1cccc(O)c1)c1cccc(O)c1`, the inhibition is reported as inactive: 2.65%.
With `Cc1cccc(OCC(=O)OC2CN3CCC2CC3)c1` (centres undefined) the inhibition was inactive: 0.98%.
In the case of `CS(=O)(=O)c1ccc(Cl)c(NC(=O)COC(=O)C(O)(c2ccccc2)c2ccccc2)c1`, the inhibition is reported as inactive: 1.53%.
In the case of `COc1cc(C(=O)NCC2(N3CCOCC3)CCCCC2)cc(Cl)c1OC(C)C`, the inhibition is reported as inactive: 0.867%.
`O=[As](O)(O)c1cccnc1` was tested, and the inhibition was inactive: 1.29%.
For `O=C(OC1CN2CCC1CC2)c1ccc(Cl)cc1` (centres undefined), the inhibition was inactive: 4.22%.
With `CCOP(=O)(Nc1cccc2ccccc12)OCC` the inhibition was inactive: -0.786%.
In the case of `COc1cc(C2NCCC3(OCCO3)C2(C)C)cc(OC)c1OC` (centres undefined), the inhibition is reported as inactive: -3.56%.
With `CCCOP(=S)(Nc1nc(N)cc(=O)[nH]1)OCCC` the inhibition was inactive: -0.654%.
`Nc1cccc2c([As](=O)(O)O)cccc12` was tested, and the inhibition was active: 34.1%.
In the case of `Cc1ccc(NCCc2c([N+](=O)[O-])cc([N+](=O)[O-])cc2[N+](=O)[O-])cc1`, the inhibition is reported as inactive: 3.42%.
With `Nc1ccccc1[As](=O)(O)c1ccccc1` the inhibition was inactive: 0.414%.
In the case of `O=C(O)COc1ccc([As](=O)(O)O)cc1[N+](=O)[O-]`, the inhibition is reported as inactive: -0.111%.
With `CS(=O)(=O)c1cc([N+](=O)[O-])c2no[n+]([O-])c2c1` the inhibition was inactive: -35.4%.
In the case of `O=P(Nc1nccs1)(c1ccccc1)c1nc2ccccc2s1` (centres undefined), the inhibition is reported as inactive: 0.413%.
`O=P(Nc1nccs1)(Oc1ccccc1)Oc1ccccc1` was tested, and the inhibition was inactive: 0.816%.
For `CCOP1(=S)c2c(C)nn(CCC#N)c2N=C(c2ccccc2F)N1C` (centres undefined), the inhibition was inactive: -1.9%.
`CN(C(=O)Cc1ccc(Cl)c(Cl)c1)[C@H]1CC[C@@]2(CCCO2)C[C@@H]1N1CCCC1` was tested, and the inhibition was inactive: 2.92%.
`CN(C)C(=O)c1cc([N+](=O)[O-])cc2c1-c1c(cc([N+](=O)[O-])cc1[N+](=O)[O-])C2=O` was tested, and the inhibition was inactive: 7.58%.
`O=[N+]([O-])c1ccc2c(c1)nnn2O` was tested, and the inhibition was inactive: 3.08%.
With `CCOP1(=S)c2c(C)nn(CCC#N)c2N=C(c2ccc(F)cc2)N1C` (centres undefined) the inhibition was inactive: 2.78%.
In the case of `CN(C(=O)Cc1ccccc1)[C@@H]1CC[C@]2(CCCO2)C[C@H]1N1CCCC1`, the inhibition is reported as inactive: -16.1%.
With `N#CCCN(C(=O)COC(=O)C(O)(c1ccccc1)c1ccccc1)c1ccc(F)cc1` the inhibition was inactive: 0.564%.
In the case of `NC(=O)Nc1ccc([As](=O)(O)O)cc1`, the inhibition is reported as inactive: 2.65%.
For `CCCC1OP(=O)(Nc2ccccc2)OCC1CC` (centres undefined), the inhibition was inactive: -0.763%.
`O=C(/C=C/c1ccccc1)OC1CN2CCC1CC2` (centres undefined) was tested, and the inhibition was inactive: 0.666%.
With `CN(C)C1(CNC(=O)c2ccc(S(C)(=O)=O)cc2)CCCCC1` the inhibition was inactive: 2.04%.
In the case of `CC1CCC(C(C)C)C(OP(=O)(Nc2ccccn2)c2ccccc2)C1` (centres undefined), the inhibition is reported as inactive: 1.59%.
With `Cc1ccc(C(=O)OC2CN3CCC2CC3)cc1` (centres undefined) the inhibition was inactive: -1.05%.
For `Cc1nn(-c2ccccc2)c2c1P(=O)(N1CCOCC1)N(C)C(c1ccccc1)=N2` (centres undefined), the inhibition was inactive: 1.63%.
With `O=P1(Nc2ccc(Br)cn2)COc2ccccc2OC1` the inhibition was inactive: 1.27%.
For `NS(=O)(=O)c1cccc(NC(=O)COC(=O)C(O)(c2ccccc2)c2ccccc2)c1`, the inhibition was inactive: -1.03%.
In the case of `O=[As](O)(c1cccs1)c1cccs1`, the inhibition is reported as inactive: 4.26%.
With `Cc1ccc(OCC(=O)OC2CN3CCC2CC3)cc1` (centres undefined) the inhibition was inactive: 3.5%.
With `Nc1cccc([As](=O)(O)c2ccccc2)c1` the inhibition was inactive: 4.09%.
With `O=P1(Nc2ncccn2)COc2ccccc2OC1` the inhibition was inactive: -0.356%.
With `Cc1ccc(S(=O)(=O)N(CCCN)CCCc2c(C)nc(N)[nH]c2=O)cc1` the inhibition was inactive: -0.309%.
For `CC(C)(C)C(=O)NC(Sc1ncccn1)C(Cl)(Cl)Cl` (centres undefined), the inhibition was inactive: 0.127%.
For `O=P1(N(CCCl)CCCl)NCCC(C(F)(F)F)O1` (centres undefined), the inhibition was inactive: -0.613%.
With `Clc1n[nH]nc1-c1nn[nH][15n]1` the inhibition was inactive: -0.0744%.
For `CN(CCCl)Cc1cc(Cl)c(NC2=NCCN2)c(Cl)c1`, the inhibition was inactive: -3.21%.
`CCOP(=O)(Nc1ccc(C)cn1)OCC` was tested, and the inhibition was inactive: 1.59%.
In the case of `CCOP(=O)(NC(=NC(C)c1ccccc1)NC(C)c1ccccc1)OCC` (centres undefined), the inhibition is reported as inactive: 0.464%.
In the case of `O=P1(Nc2ccccn2)COc2ccccc2OC1`, the inhibition is reported as inactive: 0.598%.
`CCC1=CC2Cc3nc4ccc(Cl)cc4c(N)c3C(C1)C2` (centres undefined) was tested, and the inhibition was inactive: -3.01%.
In the case of `CC1(CBr)Cn2c(nc3ccccc3c2=O)S1` (centres undefined), the inhibition is reported as inactive: -0.829%.
With `CC(C)/C=N\N=C(\N)N[N+](=O)[O-]` the inhibition was inactive: 1.42%.
With `CN(C(=O)Cc1ccc(Cl)c(Cl)c1)[C@@H]1CCCC[C@H]1N1CCCC1` the inhibition was inactive: -1.97%.
In the case of `COc1ccccc1CNC(=O)COC(=O)C(O)(c1ccccc1)c1ccccc1`, the inhibition is reported as inactive: 2.05%.
